Data on one compound can be found in patent US20230203059A1, “MACROCYCLIC JAK INHIBITOR AND USES THEREOF” (Biopolar Hongye (Guangdong) Pharmaceutical Co. Ltd., priority 2020, published 2023).

Amino acid sequences for entries named in this document (tags omitted).
UniProt O60674, whole entry: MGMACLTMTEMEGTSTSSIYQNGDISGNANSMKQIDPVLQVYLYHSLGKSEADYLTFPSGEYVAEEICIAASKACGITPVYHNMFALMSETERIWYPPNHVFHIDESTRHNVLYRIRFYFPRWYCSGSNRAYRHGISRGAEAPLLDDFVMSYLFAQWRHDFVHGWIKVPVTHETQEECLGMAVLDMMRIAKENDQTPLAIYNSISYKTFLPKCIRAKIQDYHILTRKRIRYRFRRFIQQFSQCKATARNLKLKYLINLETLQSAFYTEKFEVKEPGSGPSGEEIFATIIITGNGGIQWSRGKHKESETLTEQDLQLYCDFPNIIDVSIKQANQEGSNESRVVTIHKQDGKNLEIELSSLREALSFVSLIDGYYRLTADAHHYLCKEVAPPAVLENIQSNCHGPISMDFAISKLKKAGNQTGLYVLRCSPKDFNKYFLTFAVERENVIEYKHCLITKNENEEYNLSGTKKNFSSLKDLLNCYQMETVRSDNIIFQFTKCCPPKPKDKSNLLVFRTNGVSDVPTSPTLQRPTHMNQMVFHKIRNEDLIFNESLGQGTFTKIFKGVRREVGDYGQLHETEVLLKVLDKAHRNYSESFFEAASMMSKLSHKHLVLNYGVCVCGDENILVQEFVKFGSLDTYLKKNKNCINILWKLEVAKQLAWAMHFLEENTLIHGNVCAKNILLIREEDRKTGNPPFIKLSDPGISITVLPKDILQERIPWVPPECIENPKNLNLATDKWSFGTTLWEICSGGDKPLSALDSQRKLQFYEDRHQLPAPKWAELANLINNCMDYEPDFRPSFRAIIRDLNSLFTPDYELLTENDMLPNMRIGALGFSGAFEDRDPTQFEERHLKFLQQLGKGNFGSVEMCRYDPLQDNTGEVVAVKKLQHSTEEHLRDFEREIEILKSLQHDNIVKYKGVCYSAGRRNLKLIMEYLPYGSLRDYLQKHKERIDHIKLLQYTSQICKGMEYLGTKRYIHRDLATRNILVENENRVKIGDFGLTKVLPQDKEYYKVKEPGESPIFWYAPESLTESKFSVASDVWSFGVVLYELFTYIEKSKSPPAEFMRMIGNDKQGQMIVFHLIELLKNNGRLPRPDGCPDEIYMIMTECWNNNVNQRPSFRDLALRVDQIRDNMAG
UniProt P29597, whole entry: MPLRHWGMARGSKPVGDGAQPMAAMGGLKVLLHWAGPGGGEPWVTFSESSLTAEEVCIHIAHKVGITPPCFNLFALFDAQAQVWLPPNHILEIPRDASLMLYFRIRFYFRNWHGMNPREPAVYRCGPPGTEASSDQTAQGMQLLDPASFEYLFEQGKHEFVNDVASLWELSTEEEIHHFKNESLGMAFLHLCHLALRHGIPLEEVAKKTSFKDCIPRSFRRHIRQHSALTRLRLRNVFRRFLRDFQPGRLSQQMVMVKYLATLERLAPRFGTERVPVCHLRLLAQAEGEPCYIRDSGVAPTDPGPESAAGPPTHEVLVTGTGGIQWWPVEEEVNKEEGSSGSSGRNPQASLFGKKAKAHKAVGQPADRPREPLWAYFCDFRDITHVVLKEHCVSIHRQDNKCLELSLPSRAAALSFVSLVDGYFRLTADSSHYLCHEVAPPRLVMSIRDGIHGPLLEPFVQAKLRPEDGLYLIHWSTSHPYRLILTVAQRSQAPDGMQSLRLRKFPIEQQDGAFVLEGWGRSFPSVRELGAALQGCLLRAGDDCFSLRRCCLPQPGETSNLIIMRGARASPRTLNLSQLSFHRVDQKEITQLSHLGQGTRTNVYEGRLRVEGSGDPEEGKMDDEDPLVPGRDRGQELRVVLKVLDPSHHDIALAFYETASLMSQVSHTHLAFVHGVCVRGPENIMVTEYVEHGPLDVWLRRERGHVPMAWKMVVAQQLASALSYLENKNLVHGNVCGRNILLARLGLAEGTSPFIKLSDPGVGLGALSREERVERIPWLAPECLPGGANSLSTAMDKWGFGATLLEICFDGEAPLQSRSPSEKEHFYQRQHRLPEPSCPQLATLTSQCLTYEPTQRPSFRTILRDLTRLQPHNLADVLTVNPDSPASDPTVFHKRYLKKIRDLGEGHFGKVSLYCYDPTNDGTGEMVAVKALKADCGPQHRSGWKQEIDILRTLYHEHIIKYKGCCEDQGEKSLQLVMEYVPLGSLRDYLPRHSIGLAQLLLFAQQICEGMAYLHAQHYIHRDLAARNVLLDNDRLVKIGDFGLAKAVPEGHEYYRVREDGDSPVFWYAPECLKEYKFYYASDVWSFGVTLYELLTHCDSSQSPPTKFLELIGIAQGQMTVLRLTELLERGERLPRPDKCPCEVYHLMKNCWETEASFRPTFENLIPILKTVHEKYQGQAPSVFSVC

For one assay, the target named is JAK2 (Homo sapiens, UniProt O60674). The assay is described as follows: JAK kinase activity, homogeneous time-resolved fluorescence (JAK2 reaction system). To be noted: read-out: JAK 2 activity; ATP 2 μM, JAK2 protein 0.01 ng/μL.
For a further assay, the target named is TYK2 (Homo sapiens, UniProt P29597). Description: JAK kinase activity, homogeneous time-resolved fluorescence (TYK2 reaction system). To be noted: read-out: TYK 2 activity; ATP 2 μM, TYK2 protein 0.2 ng/μL.

In the case of `Nc1cc2ccc1-c1ccnc(n1)Nc1ccc(Cl)c(c1)COCCCCNC2=O`, the IC50 at JAK2 and on TYK2 was 1 to 10 µM each time.
